The record followed here is PubChem BioAssay AID504454 (NMMLSC, 2011).

Sequences of proteins named here, by UniProt entry; tags and fusion partners are left off.
UniProt P07550, whole entry: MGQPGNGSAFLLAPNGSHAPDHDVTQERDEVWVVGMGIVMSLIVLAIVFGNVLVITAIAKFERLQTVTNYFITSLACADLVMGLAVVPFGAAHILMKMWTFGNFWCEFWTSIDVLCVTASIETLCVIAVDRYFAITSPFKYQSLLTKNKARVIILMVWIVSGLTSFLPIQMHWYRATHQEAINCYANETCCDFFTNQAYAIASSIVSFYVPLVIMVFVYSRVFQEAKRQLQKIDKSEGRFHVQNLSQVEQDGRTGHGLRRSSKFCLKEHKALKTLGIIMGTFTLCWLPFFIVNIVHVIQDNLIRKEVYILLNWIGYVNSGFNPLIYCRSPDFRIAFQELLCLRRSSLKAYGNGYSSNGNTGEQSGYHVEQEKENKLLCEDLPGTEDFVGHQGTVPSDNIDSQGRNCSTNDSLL

The entries are a selection whose mix differs from that of the whole data set. Some tests of the compounds listed are not included; inactive here does not mean inactive elsewhere. Active and inactive are the calls of the source.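 How the source made its calls: active means response above a set limit, near 3 SD of response in nonfluorescent compounds (cut at about 42% in these data); inactive means the rest.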

The test deals with Beta-2 adrenergic receptor (Homo sapiens) (UniProt P07550). The test is described as follows: beta2AR agonists driving receptor internalization, primary screen, cell-based, FAP fluorogen, flow cytometry (AID 504454). Particulars: Am2.2-beta2AR cells, stronger effect = higher value, concentration not given here.
Regarding `COc1ccc(Br)c(C(=O)NCC2(N3CCCCC3)CCCCC2)c1`, the response is inactive: 6.6%.
On to `CN(C)c1cccc(C(=O)NCC2(N(C)C)CCCCC2)c1`, for which the response is inactive: 7.01%.
For `O=C(OCCN1CCCC1)C(O)(c1ccccc1)c1ccccc1` the value was inactive: -2.39%; for `CC(C)Oc1ccc(C(=O)NCC2(N(C)C)CCCCC2)cc1`, inactive: -2.36%; for `O=C(OC1CN2CCC1CC2)C(CO)(c1ccccc1)c1ccccc1` (stereo not given), inactive: -0.98%.
The figure for `COc1ccc(Cl)cc1C(=O)NCC1(N(C)C)CCCCC1` is inactive: -14.4%; for `COc1cccc(C(=O)NCC2(N3CCCCC3)CCCCC2)c1` it is inactive: 0.52%; for `O=C(NCC1(N2CCCCC2)CCCCC1)c1cccc(Cl)c1` it is inactive: 1.77%.
Consider `CN(C)C1(CNC(=O)c2ccc(Br)cc2)CCCCC1`, for which the response was inactive: -2.37%.
For `COc1cc(C(=O)NCC2(N(C)C)CCCCC2)c([N+](=O)[O-])cc1OC` the value was inactive: -3.31%; for `O=C(NCC1(N2CCCCC2)CCCCC1)c1cc(F)c(F)cc1Cl`, inactive: -3.58%; for `C=CCN1CCN(CCOC(=O)C(O)(c2ccccc2)c2ccccc2)CC1`, inactive: 1.11%.
For `O=C(NCC1(N2CCCCC2)CCCCC1)c1cccc(Br)c1` the value was inactive: 5.52%; for `Cc1cc(C(=O)NCC2(N3CCCCC3)CCCCC2)ccc1[N+](=O)[O-]`, inactive: -1.28%.
The figure for `CCN1CCCC(OC(=O)C2(O)c3ccccc3C=Cc3ccccc32)C1` (stereo not given) is inactive: 3.06%; for `COc1ccc(C(=O)NCC2(N(C)C)CCCCC2)cc1` it is inactive: -8.11%; for `CN(C)C1CCCC1OC(=O)C(O)(c1ccccc1)c1ccccc1` (stereo not given) it is inactive: -1%.
Take `CN(C)c1ccc(C(=O)NCC2(N(C)C)CCCCC2)cc1`: the response is inactive: 0.29%.
For `Cc1ccccc1C(=O)NCC1(N2CCCCC2)CCCCC1` the value was inactive: 0.39%; for `CC(C)N1C(=O)CC2(CCN(CCOC(=O)C(O)(c3ccccc3)c3ccccc3)CC2)C1=O`, inactive: 2.01%.
For `COc1cc(SC)ccc1C(=O)NCC1(N(C)C)CCCCC1` the value was inactive: -12.4%; for `CCN(CC)CC(C)C(C)OC(=O)C(O)(c1ccccc1)c1ccccc1` (stereo not given), inactive: 0%; for `Cc1ccc(C(=O)NCC2(N3CCCCC3)CCCCC2)cc1`, inactive: -13%.
Turning to `O=C(NCC1(N2CCCCC2)CCCCC1)c1cc([N+](=O)[O-])ccc1Cl`, the response is inactive: 3.26%.
For `CN1[C@@H]2CC[C@H]1CC(OC(=O)C(O)(c1ccccc1)c1ccccc1)C2` (stereo not given in full) the value was inactive: -6.13%.
